Hits are enriched below; roughly 2.3% of the tested compounds scored in any of these assays.
A549 viability = kills or reduces viability of A549 cells in Nrf2 counter-screen. A549 ARE-Fluc cells, CellTiter-Fluor viability, 18-24 h. Potency, µM (series often up to 46 µM), without a hit: at the top dose activity change, negative = cytotoxicity, hits mostly inhibitors. AID 504648. 390,000 compounds, 0.16% hits; further: potency means the concentration at half of the fitted maximal effect; on the % scale 0 is the no-effect control and ±100 the full control effect
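Cytotoxicity counterscreen: CellTiter-Fluor fluorescence was measured in A549 ARE_Fluc cells after 18-24 h of compound exposure in a concentration series. The subsequent BugLite luminescent read reports ARE-luciferase activity.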
Nrf2 block = blocks Nrf2 signaling; A549 ARE-Fluc reporter, luciferase luminescence, 18-24 h; Potency, µM (highest dose often 46 µM), inactives show at the top dose activity change, negative = inhibition, usual class: inhibitors; 360,000 compounds, 2.1% hits; AID 504444; further: potency means the concentration at half of the fitted maximal effect; on the % scale 0 is the no-effect control and ±100 the full control effect; nearly all actives have a fitted effect of over 60% in size
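Reporter: ARE-Fluc in A549. Exposure: 18-24 h, 37 °C, 5% CO2, 5% FBS OPTI-MEM. Readouts: fluorescent cytotoxicity (CellTiter-Fluor), then luminescent Nrf2 signal after BugLite.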
miR-21 reporter = miR-21 reporter, rising signal | 340,000 tested, under 10 active | AID 2288 | HeLa miR-21 FLuc reporter, luciferase, 48 h | Potency, µM (titrated, usually from 38.3 µM), for inactives: at the highest dose reporter change, positive = more light; active = well fitted rising curve with a large enough effect; inconclusive = small, poorly fitted or top-dose-only effect; inactive = no such curve, though single readings can be large or run the other way;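 further: % of control where 0% means no effect; miR-21 action dims this reporter so a rising signal means less miR-21 action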
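Compounds were titrated across several concentrations (up to approximately 40 uM) and incubated 48 hours with HeLa miR-21-FLuc reporter cells (miR-21 target sequence downstream of FLuc, endogenous miR-21). Readout was firefly luciferase luminescence after lytic detection reagent.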
Nrf2 ARE act = activators of Nrf2 (ARE) signaling. AREc32 ARE-luciferase reporter (MCF7-derived line), luminescence, 24 h. Potency, µM (series often up to 46.1 µM), for inactives: at the top dose activation, most hits filed as activators. 410,000 compounds, 0.31% hits. AID 624171; further: potency means the concentration at half of the fitted maximal effect; % of control where 0% means no effect; nearly all actives have a fitted effect of over 65% in size
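Quantitative high-throughput format: AREc32 reporter cells, 1000 per well, received compound by pin transfer and were incubated 24 hr at 37 deg C, 5% CO2, before Steady-Glo luminescence detection.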
Glioma ERSR ind = induces the endoplasmic reticulum stress response in human glioma cells | U87-MG GRP78 promoter luciferase reporter, 16 h | Potency, µM, for inactives: at the highest dose activation, usual class: activators | 420,000 compounds, 0.02% hits; further: potency means the concentration at half of the fitted maximal effect; series mostly up to about 76 µM; % of control where 0% means no effect; nearly all actives have a fitted effect of over 35% in size
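ERSR induction read as luciferase luminescence (Bright-Glo, 10 min at room temperature) in stably transfected human U87-MG glioma cells exposed to compounds for 16 h, using GRP78 as sensor.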
Mito fusion act = inhibitors of mitochondrial division or activators of mitochondrial fusion; S. cerevisiae fusion-defective mutant growth rescue, CellTiterGlo 48 h; Potency, µM (doses to about 46.1 µM), for inactives: at the highest dose growth rescue (activation), hits mostly activators; 320,000 compounds, 0.23% hits; AID 485298; further: potency means the concentration at half of the fitted maximal effect; % of control where 0% means no effect; nearly all actives have a fitted effect of over 45% in size
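Luminescent cell viability in 1536-well qHTS format served as the measure of rescued growth in ts fusion-mutant S. cerevisiae cultured on non-fermentable YPEG for 48 hours at 37C.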
An asterisk follows results filed as active; ? = inconclusive; · = not tested or not shown; [ ] = another dose, or the depositor's remark. Unless noted, the call rests on the fitted dose curve; in most records, active means well fitted curve in the direction sought with a large enough effect; inconclusive means small, poorly fitted or top-dose-only effect, or another doubt; inactive means no such curve, though single readings can be large; an effect the other way counts as inactive or inconclusive.

Order of values: A549 viability, Mito fusion act, Nrf2 block, Glioma ERSR ind, Nrf2 ARE act, miR-21 reporter
> Cc1cc(-c2nc(C)c(C(=O)NNS(=O)(=O)c3ccc(Cl)cc3Cl)s2)no1
    0%, 1%, 5%, -6%, 0%, -7%
> Cn1nc(-c2ccc(Cl)cc2)nc2c(=O)n(C)c(=O)nc1-2
    8.2µM*, -37%, -124%, -9%, ·, ?
> CS(=O)(=O)n1nc(-c2ccc(Cl)cc2)nc1N
    1%, 6%, 4%, 3%, 1%, -21%
> Cc1ccc(CCNC(=O)CCS(=O)(=O)c2cc3c(cc2C)NC(=O)CO3)cc1
    -1%, -1%, ?, -1%, 0%, -5%
> CCCSC1=N/C(=C\C=C\c2ccco2)C(=O)S1
    -4%, 7%, 6%, 0%, 10µM*, -9%
> COc1ccc(-c2nn(C)c(=O)c3ccccc23)cc1CNS(C)(=O)=O
    -7%, 2%, -2%, -3%, 5%, -8%
> S=C(Nc1ccc(Nc2ccccc2)cc1)Nc1ccccn1
    ?, 3%, 21µM*, -1%, 3%, 8%
> O=C(NC(=S)Nc1ccccn1)c1ccccc1
    -7%, 35µM*, ?, -7%, ?, -26%
> C[C@H](CO)N1C[C@H](C)[C@@H](CN(C)C(=O)Nc2ccc(C(F)(F)F)cc2)Oc2c(NC(=O)Nc3ccc(C(F)(F)F)cc3)cccc2C1=O
    ?, ·, ?, -8%, -4%, ·
> C[C@H](CO)N1C[C@H](C)[C@@H](CN(C)Cc2ccc(C(=O)O)cc2)Oc2c(NC(=O)C3CC3)cccc2C1=O
    -7%, ·, 5%, -1%, -1%, ·
> C[C@H]1CN([C@@H](C)CO)C(=O)c2cccc(NC(=O)Nc3ccc(C(F)(F)F)cc3)c2O[C@@H]1CN(C)C(=O)Nc1ccc(F)cc1
    ?, ·, 16µM*, -8%, -6%, ·
> C[C@H](CO)N1C[C@H](C)[C@@H](CN(C)Cc2ccc(Oc3ccccc3)cc2)Oc2c(NC(=O)C3CC3)cccc2C1=O
    -17%, ·, 23µM*, -5%, -5%, ·
> Cc1ccc(S(=O)(=O)Nc2cccc3c2O[C@H](CN(C)C(=O)Nc2ccc(C(F)(F)F)cc2)[C@@H](C)CN([C@H](C)CO)C3=O)cc1
    -18%, ·, 18µM*, -1%, 4%, ·
> CC(C)c1cc(C(=O)NCc2ccc(F)cc2)no1
    -6%, ·, ?, ·, 0%, -51%
> CCOc1ccc(S(=O)(=O)Nc2cccc(-c3ccc(N4CCCCCC4)nn3)c2)cc1
    -13%, 23%, 2%, -2%, 0%, -42%
> CC1(C(=O)NS(=O)(=O)c2ccccc2OC(F)(F)F)CCN1C(=O)c1ccccc1 (configuration not stated)
    ·, ·, ·, -3%, 0%[9.22 µM], ·
> O=C(O)c1cc(-n2nnnc2SCc2ccccc2F)ccc1Cl
    6%, -2%, -7%, -2%, 2%, 1%
> CCCn1nc([N+](=O)[O-])c(C(C#N)c2nc3ccccc3o2)c(Cl)c1=O (configuration not stated)
    ?, 0%, 10%, -6%, 5%, 12%
> Cn1nc([N+](=O)[O-])c(C(C#N)c2ccccn2)c(Cl)c1=O (configuration not stated)
    ?, 3%, 12µM*, -13%, ?, 15%
> Cc1cccc(NC(=S)NCc2ccco2)n1
    -3%, 4%, -12%, -1%, 13µM*, -5%
> CC(=O)c1c(C)[nH]c(C(=O)CSc2nnc(-c3ccco3)n2Cc2ccccc2)c1C
    -11%, 3%, -26%, -7%, 2%, 8%
> COc1ccc(NC(=O)c2ccc(COc3ccccc3Br)o2)cc1OC
    -14%, 5%, 23µM*, 0%, 7%, 1%
> Cc1cn([C@@H](CCCCNC(=O)OC(C)(C)C)C(=O)NCCCCCCCCCCC(=O)N2CCN(C(=O)OC(C)(C)C)CC2)nn1
    16µM*, -9%, 10µM*, -8%, -1%, ·
> CC[C@H](C)Cc1cn([C@@H](CCCN=C(NC(=O)OC(C)(C)C)NC(=O)OC(C)(C)C)C(=O)NCCCCCCCCCCC(=O)N2CCN(C(=O)OC(C)(C)C)CC2)nn1
    ?, -1%, ?, -3%, -4%, ·
> ClC(Cl)(Cl)c1nc2ccccc2n2nncc12
    ?, 13µM*, ?, -18%, 0%, 29%
> CCCCSC(=O)Nc1ccccc1
    -4%, 3%, ?, 3%, 0%, -20%
> O=C(Nc1ccccc1-c1nnc(SCc2ccc(Cl)cc2)o1)c1ccccc1
    ?, 3%, 11%, -4%, 0%, -3%
> O=c1c(-c2nnc(SCc3ccc(Cl)cc3)o2)cccn1Cc1ccccc1
    ?, 12%, 21µM*, 1%, 0%, 0%
> Cc1nnc(N2CCCC(C(=O)NCc3ccc(OC(C)C)cc3)C2)c2nn(-c3ccccc3)c(C)c12 (configuration not stated)
    ?, -4%, ?, -8%, 7%, 14%
> Cc1ccc(-n2c(Cc3cccs3)nnc2SCC(=O)Nc2ccc(F)c(F)c2)cc1
    -14%, 0%, 23µM*, -6%, 3%, 2%

Next part (3 carried over from the part before).
Order of values: A549 viability, Mito fusion act, Nrf2 block, Glioma ERSR ind, Nrf2 ARE act, miR-21 reporter
> O=c1c(-c2nnc(SCc3ccc(Cl)cc3)o2)cccn1Cc1ccccc1
    ?, 12%, 21µM*, 1%, 0%, 0%
> Cc1nnc(N2CCCC(C(=O)NCc3ccc(OC(C)C)cc3)C2)c2nn(-c3ccccc3)c(C)c12 (configuration not stated)
    ?, -4%, ?, -8%, 7%, 14%
> Cc1ccc(-n2c(Cc3cccs3)nnc2SCC(=O)Nc2ccc(F)c(F)c2)cc1
    -14%, 0%, 23µM*, -6%, 3%, 2%
> O=C(CSc1nnc(Cc2cccs2)n1-c1ccccc1)Nc1ccc2c(c1)OCCO2
    -11%, 8%, 4%, -4%, 3%, 16%
> CCOC(=O)c1cnn(-c2ccc(C(=O)Nc3ccc(OC(F)(F)F)cc3)cc2)c1N
    -7%, ·, ·, -5%, 0%, 6%
> COc1ccc(N(CC(=O)NC2CCCC2)C(=O)Cn2nnc(-c3ccc(C)o3)n2)cc1
    4%, 3%, -8%, -4%, 0%, -5%
> Cc1ccc(CNC(=O)c2ccc3nc4[nH]c5ccccc5c4nc3c2)cc1
    ·, 5%, ·, ·, ·, -24%
> COc1ccccc1CNC(=O)c1ccc2nc3[nH]c4ccccc4c3nc2c1
    ?, -4%, 15µM*, 2%, 26%, -3%
> CCCCCNC(=O)c1cc2c(=O)n3ccccc3nc2n1C
    -3%, ·, 18µM*, 1%, 4%, 14%
> O=C(c1ccc(Cl)cc1)N1CCN(c2ccc([N+](=O)[O-])c3ncccc23)CC1
    ·, 23µM*, ·, -1%, ·, ·
> O=C(c1cc(F)c(F)cc1Cl)N1CCN(c2ccc([N+](=O)[O-])c3ncccc23)CC1
    2%, 0%, -14%, -6%, 2%, -3%
> CC(C)c1ccc(NC(=O)c2cnc3sc(N4CCCC4)nn3c2=O)cc1
    -8%, ·, 2.3µM*, -2%, 0%, 1%
> Cc1ccc(S(=O)(=O)N2CCN(CCOc3cccc(C)c3)CC2)cc1
    -7%, 16%, 21µM*, -2%, 0%, ·
> FC(F)(F)c1ccc2c(c1)ncc1c(-c3ccccc3)nn(-c3ccccc3)c12
    3%, ·, -17%, -2%, 0%, -8%

2 compounds picked at random from the list so far:
Order of values: A549 viability, Mito fusion act, Nrf2 block, Glioma ERSR ind, Nrf2 ARE act, miR-21 reporter
> C[C@H]1CN([C@@H](C)CO)C(=O)c2cccc(NC(=O)Nc3ccc(C(F)(F)F)cc3)c2O[C@@H]1CN(C)C(=O)Nc1ccc(F)cc1
    ?, ·, 16µM*, -8%, -6%, ·
> COc1ccccc1CNC(=O)c1ccc2nc3[nH]c4ccccc4c3nc2c1
    ?, -4%, 15µM*, 2%, 26%, -3%
